Read-outs that look alike come from different tables or passages of the source.
Columns and labels:
MCF-7 cells (-Pgp) = details: control buffer
KB-8-5-11 (++Pgp) cells = details: KB-8-5-11 (++Pgp) cells, control buffer
[1] = rats; for Heart to Tissue Ratio, Heart/Blood / Heart to Tissue Ratio, Heart/Liver: n = 3
MCF-7/MDR1 (+Pgp) cells = details: MCF-7/MDR1 (+Pgp) cells, control buffer
MDR KB-8-5 (+Pgp) cells = details: MDR KB-8-5 (+Pgp) cells, control buffer
MDR1 Pgp (ABCB1) = details: 2 h post injection, dKO vs WT mice
KB-3-1 cells (-Pgp) = details: control buffer
[2] = Quantitative biodistribution in wild-type (WT) mice; details: n = 3
[3] = 120 min P.I., listed as drawing 4

Structure (SMILES): CC(C)Oc1cccc2c1[O][67Ga+][O]c1c(cccc1OC(C)C)C=NCC(C)(C)CNCCNCC(C)(C)CN=C2.[I-] [Agent 1A, [ENBDMP-3-isopropoxy-PI-^67Ga]^+]
- cellular accumulation (MCF-7 cells (-Pgp)): high accumulation
- cellular accumulation (KB-8-5-11 (++Pgp) cells): low accumulation
- Heart to Tissue Ratio, Heart/Blood ([1]; 5 min P.I.): 8.386 % ID/g
- Heart to Tissue Ratio, Heart/Liver ([1]; 5 min P.I.): 0.554 % ID/g
- Heart to Tissue Ratio, Heart/Blood ([1]; 60 min P.I.): 49.677 % ID/g
- Heart to Tissue Ratio, Heart/Liver ([1]; 60 min P.I.): 4.246 % ID/g
- heart/blood ratio relative to ratios reported for gallium-bisaminothiolate complexes (WO2008/128058) ([1]; 120 min P.I.): 10.4 times
- heart/liver ratio relative to ratios reported for gallium-bisaminothiolate complexes (WO2008/128058) ([1]; 120 min P.I.): 10.8 times
- Heart to Tissue Ratio, Heart/Blood ([1]; 120 min P.I., listed as 1a): 138.825 % ID/g
- Heart to Tissue Ratio, Heart/Liver ([1]; 120 min P.I., listed as 1a): 7.782 % ID/g
- Heart to Tissue Ratio, Heart/Blood [1, 3]: 138 % ID/g
- Heart to Tissue Ratio, Heart/Liver [1, 3]: 8 % ID/g
- cellular accumulation (MCF-7/MDR1 (+Pgp) cells): low accumulation
- cellular accumulation (MDR KB-8-5 (+Pgp) cells): low accumulation
- greater brain penetration and retention in mdr1a/1b(-/-) mice compared with WT counterparts (MDR1 Pgp (ABCB1)): 16 fold
- cellular accumulation (KB-3-1 cells (-Pgp)): high accumulation
- Heart to Tissue Ratio, Heart/Blood ([2]; 5 min P.I.): 7.772 % ID/g
- Heart to Tissue Ratio, Heart/Liver ([2]; 5 min P.I.): 0.206 % ID/g
- Heart to Tissue Ratio, Heart/Blood ([2]; 60 min P.I.): 126.918 % ID/g
- Heart to Tissue Ratio, Heart/Liver ([2]; 60 min P.I.): 1.617 % ID/g
- Heart to Tissue Ratio, Heart/Blood ([2]; 120 min P.I.): 146.618 % ID/g
- Heart to Tissue Ratio, Heart/Liver ([2]; 120 min P.I.): 3.526 % ID/g
